Four compounds from ChEMBL document CHEMBL1124242, “Renin inhibitors. Dipeptide analogues of angiotensinogen utilizing a dihydroxyethylene transition-state mimic at the scissile bond to impart greater inhibitory potency” (J Med Chem, 1988) can be followed below.

The target in test [1] is T1, Renin (Homo sapiens, UniProt P00797). In words: In vitro Inhibitory activity against Renin at 10e-9 (M). The essentials:
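Purified human renin, procedure as reported earlier. Results given as percent inhibition at 10^-9 M.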

The target of test [2] is T1, Renin. Briefly: In vitro Inhibitory activity against Renin at 10e-9 (M).
For test [3], the target named is T2, Gastricsin (Homo sapiens) (UniProt P20142).
T2 sequence (whole entry): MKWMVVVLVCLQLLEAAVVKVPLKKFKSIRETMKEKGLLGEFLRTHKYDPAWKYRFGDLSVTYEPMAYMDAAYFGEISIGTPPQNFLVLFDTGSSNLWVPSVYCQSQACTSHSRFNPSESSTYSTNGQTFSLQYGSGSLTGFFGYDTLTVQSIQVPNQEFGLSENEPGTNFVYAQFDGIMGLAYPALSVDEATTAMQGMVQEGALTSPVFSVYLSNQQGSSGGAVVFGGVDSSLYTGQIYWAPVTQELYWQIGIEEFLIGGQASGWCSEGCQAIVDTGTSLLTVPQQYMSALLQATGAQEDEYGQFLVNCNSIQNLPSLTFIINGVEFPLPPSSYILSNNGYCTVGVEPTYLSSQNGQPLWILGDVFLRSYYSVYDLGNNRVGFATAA
Briefly: In vitro Inhibitory activity against human Gastricsin at 10e-5 (M). The essentials: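 Human gastricsin and pepsin isolated from gastric juice by IRC-50 ion exchange with pH elution. Hemoglobin substrate; gastricsin run at pH 3.1, pepsin at pH 2.0. After trichloroacetic acid precipitation, supernatant absorbance read at 280 nm. Results given as percent inhibition at 10^-5 M.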

As usually defined, the inhibition is how much of the control response was suppressed. The low end stands for little suppression, the high end for strong suppression.

In turn, `CC(C)C[C@H](O)[C@H](O)[C@H](CC1CCCCC1)NC(=O)[C@H](C)NC(=O)[C@H](Cc1ccccc1)NC(=O)OC(C)(C)C` had an inhibition on Renin [1] of 15%. On to `CC(C)C[C@H](NC(=O)OC(C)(C)C)C(=O)N[C@@H](Cc1c[nH]cn1)C(=O)N[C@@H](CC1CCCCC1)[C@@H](O)[C@@H](O)CC(C)C`, for which, at Renin [2], the inhibition came to 44%. `CC(C)C[C@H](O)[C@H](O)[C@H](CC1CCCCC1)NC(=O)[C@H](Cc1ccccc1)NC(=O)[C@H](Cc1ccccc1)NC(=O)OC(C)(C)C` gave an inhibition at Renin [1] of 37%. Take `CCOC(=O)N[C@@H](Cc1ccccc1)C(=O)N[C@@H](Cc1c[nH]cn1)C(=O)N[C@@H](CC1CCCCC1)[C@@H](O)[C@@H](O)CC(C)C`: the inhibition in test [3] came to 0%; on Renin [1], 78%.
